Data reported in EP0039538A1, “Metal amine carboxylates and use thereof as preservatives” (BP Chemicals Limited, priority 1980, dated 1981).

Assay: Solubility in water / copper content of aqueous solution

With Copper ethylene diamine acetate [CEDA] the “copper content of CEDA solution” value (aqueous solution as prepared in Example 1(a)) was 10.75 by weight of copper and the “solubility of the solid in water” value (dried blue solid of Example 1(b)) was “soluble in an equal weight of water”.
